The list shows a part of the results, in another mix than the full data. The source made the active and inactive calls. Cut-off read from the data, not from the text of the source: active = inhibition above about 30% (passing the limit was not always enough); inconclusive = no clear call, values can overlap the other calls.
tested on: PvdQ acylase [Pseudomonas aeruginosa LESB58]; test: P. aeruginosa PvdQ acylase inhibitors, primary screen, biochemical, fluorescence, plate reader and imaging, single point (AID 488965); conditions: purified PvdQ acylase, at 10 µM, stronger effect = higher value;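 note: 0% = vehicle neutral wells and 100% = reference inhibitor wells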

Structure (SMILES) | inhibition
Cc1cc(=O)[nH]c(N[N+](=O)[O-])n1 | inactive: 4.8%
O=C(OC1CN2CCC1CC2)C12CC3CC(CC(C3)C1)C2 (stereo unspecified) | inactive: -18.6%
O=[N+]([O-])c1cc([N+](=O)[O-])c(-c2ccn[nH]2)s1 | inactive: 6.18%
CC(C)NC(=O)NP(=O)(Oc1ccccc1)Oc1ccccc1 | inactive: -3.09%
CCN(CC)C(=S)SC(NC=O)C(Cl)(Cl)Cl (stereo unspecified) | inactive: -8.62%
O=C(OC1CN2CCC1CC2)c1cccc2[nH]cnc12 (stereo unspecified) | inactive: -2.28%
ClCCSc1nnc(-c2cccnc2)o1 | inactive: -10.3%
COC(=O)C1(C)COP(=O)(N2CCCCCC2)OC1 (stereo unspecified) | inactive: -12.7%
CC(C)c1ccc(OP(=O)(Nc2ccccn2)Oc2ccccc2F)cc1 (stereo unspecified) | inactive: 3.99%
Cc1ccc(OP(=O)(Nc2ccc([N+](=O)[O-])cn2)Oc2ccc(C)cc2)cc1 | inactive: 25.4%
Cc1ccc2nc3c(c(C)c2c1)CC(C(Cl)Cl)S3 (stereo unspecified) | inactive: -11.4%
O=[N+]([O-])c1ccc(-c2cc([N+](=O)[O-])c(O)c([N+](=O)[O-])c2)cc1 | inactive: 13.7%
COc1cc(C(=O)NCC2(N3CCOCC3)CCCCC2)ccc1OCC(C)C | inactive: 1.51%
C[As](=O)(O)c1cccc(C(=O)O)c1 | inactive: -22.7%
O=[As](O)(c1ccc(O)cc1)c1ccccc1O | inactive: -11.9%
CCOP1(=S)c2c(C)nn(CCC#N)c2N=C(c2ccc(F)cc2)N1C (stereo unspecified) | inactive: 1.33%
CN(C(=O)Cc1ccccc1)[C@@H]1CC[C@]2(CCCO2)C[C@H]1N1CCCC1 | inactive: -12.5%
N#CCCN(C(=O)COC(=O)C(O)(c1ccccc1)c1ccccc1)c1ccc(F)cc1 | inactive: 1.33%
CN(C(=O)Cc1ccc(Cl)c(Cl)c1)[C@H]1CC[C@@]2(CCCO2)C[C@@H]1N1CCCC1 | inactive: -7.69%
O=[N+]([O-])c1ccc2c(c1)nnn2O | inactive: 7.42%
CN(C)C(=O)c1cc([N+](=O)[O-])cc2c1-c1c(cc([N+](=O)[O-])cc1[N+](=O)[O-])C2=O | inactive: 1.38%

Structure (SMILES) | inhibition
NC(=O)Nc1ccc([As](=O)(O)O)cc1 | inactive: -1.49%
Nc1ccccc1[As](=O)(O)c1ccccc1 | inactive: 7.96%
O=C(O)COc1ccc([As](=O)(O)O)cc1[N+](=O)[O-] | inactive: 14.8%
O=P(Nc1nccs1)(Oc1ccccc1)Oc1ccccc1 | inactive: 0.264%
O=P(Nc1nccs1)(c1ccccc1)c1nc2ccccc2s1 (stereo unspecified) | inactive: -8.16%
CCOP1(=S)c2c(C)nn(CCC#N)c2N=C(c2ccccc2F)N1C (stereo unspecified) | inactive: -8.41%
CS(=O)(=O)c1cc([N+](=O)[O-])c2no[n+]([O-])c2c1 | inactive: -7.19%
CCOP(=O)(Nc1cccc2ccccc12)OCC | inactive: 5.25%
COc1cc(C2NCCC3(OCCO3)C2(C)C)cc(OC)c1OC (stereo unspecified) | inactive: -17.3%
Cc1ccc(NCCc2c([N+](=O)[O-])cc([N+](=O)[O-])cc2[N+](=O)[O-])cc1 | inactive: -10.5%
Nc1cccc2c([As](=O)(O)O)cccc12 | inactive: -14.9%
CCCOP(=S)(Nc1nc(N)cc(=O)[nH]1)OCCC | inactive: -10.2%
Cc1cccc(OCC(=O)OC2CN3CCC2CC3)c1 (stereo unspecified) | inactive: 2.22%
O=[As](O)(c1cccc(O)c1)c1cccc(O)c1 | inactive: 1.29%
O=C(OC1CN2CCC1CC2)c1ccc(Cl)cc1 (stereo unspecified) | inactive: -3.82%
CS(=O)(=O)c1ccc(Cl)c(NC(=O)COC(=O)C(O)(c2ccccc2)c2ccccc2)c1 | inactive: -9.43%
O=[As](O)(O)c1cccnc1 | inactive: -15.5%
COc1cc(C(=O)NCC2(N3CCOCC3)CCCCC2)cc(Cl)c1OC(C)C | inactive: -5.31%
CC(C)/C=N\N=C(\N)N[N+](=O)[O-] | inactive: -14.8%
CN(C(=O)Cc1ccc(Cl)c(Cl)c1)[C@@H]1CCCC[C@H]1N1CCCC1 | inactive: -12%
CC1(CBr)Cn2c(nc3ccccc3c2=O)S1 (stereo unspecified) | inactive: -13%

Structure (SMILES) | inhibition
COc1ccccc1CNC(=O)COC(=O)C(O)(c1ccccc1)c1ccccc1 | inactive: -9.43%
CC(C)(C)C(=O)NC(Sc1ncccn1)C(Cl)(Cl)Cl (stereo unspecified) | inactive: -1.46%
Clc1n[nH]nc1-c1nn[nH][15n]1 | inactive: 4.99%
CCOP(=O)(NC(=NC(C)c1ccccc1)NC(C)c1ccccc1)OCC (stereo unspecified) | inactive: -0.959%
O=P1(Nc2ccccn2)COc2ccccc2OC1 | inactive: 0.583%
CCC1=CC2Cc3nc4ccc(Cl)cc4c(N)c3C(C1)C2 (stereo unspecified) | inactive: 7.6%
CCOP(=O)(Nc1ccc(C)cn1)OCC | inactive: -17.7%
Nc1cccc([As](=O)(O)c2ccccc2)c1 | inactive: -4.46%
Cc1ccc(OCC(=O)OC2CN3CCC2CC3)cc1 (stereo unspecified) | inactive: -13%
O=[As](O)(c1cccs1)c1cccs1 | inactive: -3.03%
O=P1(Nc2ccc(Br)cn2)COc2ccccc2OC1 | inactive: -17.2%
NS(=O)(=O)c1cccc(NC(=O)COC(=O)C(O)(c2ccccc2)c2ccccc2)c1 | inactive: -10.8%
O=P1(Nc2ncccn2)COc2ccccc2OC1 | inactive: -8.59%
CN(C)C1(CNC(=O)c2ccc(S(C)(=O)=O)cc2)CCCCC1 | inactive: 1.2%
CCCC1OP(=O)(Nc2ccccc2)OCC1CC (stereo unspecified) | inactive: -1.44%
O=C(/C=C/c1ccccc1)OC1CN2CCC1CC2 (stereo unspecified) | inactive: -15.4%
CC1CCC(C(C)C)C(OP(=O)(Nc2ccccn2)c2ccccc2)C1 (stereo unspecified) | inactive: 8.41%
Cc1ccc(C(=O)OC2CN3CCC2CC3)cc1 (stereo unspecified) | inactive: 2.03%
Cc1nn(-c2ccccc2)c2c1P(=O)(N1CCOCC1)N(C)C(c1ccccc1)=N2 (stereo unspecified) | inactive: 7.01%

From PubChem BioAssay AID488965 (Broad Institute, 2010)
